Target: PAR1 (Homo sapiens (Human), UniProt P25116)
Test: Par-1 FLIPR assay (calcium, HEK 293 cells, PAR1 activating peptide)
Format: cell-based
Details: PAR1 selective receptor-activating peptide at 80% activation
Description: HEK 293 Cells were grown in media containing DMEM, 10% FBS pen/strep/L-Glutamine and non-essential amino acids. The cells were plated in 384-well PDL coated plates at 12000 cells/well and incubated overnight at 37° C./5% CO2. Media was then removed from the cells, which were then incubated with buffer (Hank's containing HEPES and Chaps) containing FLIPR calcium-5 dye, made with buffer containing probenecid, for 60 minutes at 37° C. Varying concentrations of compound in a final concentration of 5% DMSO were then added to the cells and incubated at 25° C. for 30 minutes. The plates were then added to the FLIPR Tetra and the device added a concentration of a PAR1 selective receptor-activating peptide with the sequence Ala-parafluoroPhe-Arg-Cha-Cit-Try-Nh2 (prepared in water) at a concentration equal to the effective concentration that achieves 80% activation of signaling on the day of the experiment. The range was from 1.4-2.0 μM peptide. The FLIPR reads at an excitation wavelength of 480 nm and an emission wavelength of 535 nm, and performs 60 scans over a 1-2 min reading time. The data were analyzed by taking the peak signal over a portion of the range of the 60 scans and dividing this signal by the minimum signal for that same range.

By UniProt entry, the sequences of proteins in these tests, tags left out. Residues count along the entry.
UniProt P25116, 22-425: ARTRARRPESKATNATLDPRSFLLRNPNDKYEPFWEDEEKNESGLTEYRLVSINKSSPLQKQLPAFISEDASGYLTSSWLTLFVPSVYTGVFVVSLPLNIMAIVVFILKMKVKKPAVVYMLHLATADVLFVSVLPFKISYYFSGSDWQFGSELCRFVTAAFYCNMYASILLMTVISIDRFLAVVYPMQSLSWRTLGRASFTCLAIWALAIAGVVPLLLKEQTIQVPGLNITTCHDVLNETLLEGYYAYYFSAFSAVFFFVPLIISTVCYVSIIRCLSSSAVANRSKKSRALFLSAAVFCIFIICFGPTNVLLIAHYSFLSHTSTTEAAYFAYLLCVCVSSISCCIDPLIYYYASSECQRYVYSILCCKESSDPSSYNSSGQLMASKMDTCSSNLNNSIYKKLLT

Row | Compound | IC50
1 | C[C@H]1OC(=O)[C@]2(C3(O)COC3)CC(F)(F)[C@@H](C)[C@H](/C=C/c3ccc(-c4ccccc4C#N)cn3)[C@H]12 [Example 16] | 8 nM
2 | C[C@H]1OC(=O)[C@]2(Cc3nn[nH]n3)CC(F)(F)[C@@H](C)[C@H](/C=C/c3ccc(-c4ccccc4Cl)cn3)[C@H]12 [Example 27] | 7.5 nM
3 | C[C@H]1OC(=O)[C@]2(NS(C)(=O)=O)CC(F)(F)[C@@H](C)[C@H](/C=C/c3ccc(-c4ccccc4C#N)cn3)[C@H]12 [Example 68] | 7 nM
4 | C[C@H]1OC(=O)[C@@H]2CC(F)(F)[C@@H](C)[C@H](/C=C/c3ccc(-c4ccccc4-c4nnn[nH]4)cn3)[C@H]12 [Example 75] | 346 nM
5 | C[C@H]1NC(=O)[C@]2(O)CC(F)(F)[C@@H](C)[C@H](/C=C/c3ccc(-c4ccccc4C#N)cn3)[C@H]12 [Example 79] | 5.8 nM

Compounds with a lower IC50, results first:

Row | IC50 | Compound
6 | 5.1 nM | C[C@H]1OC(=O)[C@]2(CC#N)CC(F)(F)[C@@H](C)[C@H](/C=C/c3ccc(-c4ccccc4C#N)cn3)[C@H]12 [Example 14]
7 | 1.2 nM | Cc1cccc(-c2ccc(/C=C/[C@@H]3[C@@H]4[C@@H](C)OC(=O)[C@]4(CN)CC(F)(F)[C@H]3C)nc2)c1C#N [Example 77]
8 | 1.5 nM | C[C@H]1NC(=O)[C@@H]2CC(F)(F)[C@@H](C)[C@H](/C=C/c3ccc(-c4ccccc4C#N)cn3)[C@H]12 [Example 78]
